Data: patent US20250134864A1, “METHODS OF WEIGHT LOSS AND PRESERVING SKELETAL MUSCLE MASS” (published 2025)
Values joined by “and” are separate entries in the source; they are usually repeats but may differ in a detail not shown here. Identical values can stand only once.

Key:
[1] = Phase 2a trial: safety and tolerability
[2] = Phase 2a trial: FAST score (Fibroscan and AST); conditions: evident in the lowest dose used (150 mg)
[3] = Phase 2a trial: InBody scale measurements of body weight and body composition
[4] = 150 mg, HbA1c 5.7% to 9.0% Subgroup
[5] = 150 mg, HbA1c 5.7%-9.0% subgroup
[6] = 300 mg (head prints 00 mg), HbA1c 5.7%-9.0% subgroup
[7] = 300 mg, HbA1c 5.7% to 9.0% Subgroup

## Cn1c(COc2ccc([N+](=O)[O-])cc2[N+](=O)[O-])cnc1[N+](=O)[O-]
[1]; all Compound 1 doses (150 mg n=2, 300 n=1)
  Subjects who discontinued early: 3
[1]; all Compound 1 doses, 61 days
  Diarrhea, share of Compound 1 subjects: 25% and 35%
  Flushing, share of Compound 1 subjects: 31.6% and 25%
[1]; all dose levels
  Tolerability: well-tolerated at all dose levels
[2]
  FAST score: improves the FAST score
[3]; 150 mg, All Subjects
  Body Fat Mass, Difference in LS Mean at Day 61 (Compound 1 v. Placebo): −1.03 pounds
  Body Fat Mass, LS Mean (Day 61 − Baseline), MMRM: −0.42 pounds
  Dry Lean Mass, Difference in LS Mean at Day 61 (Compound 1 v. Placebo): 0.15 pounds
  Dry Lean Mass, LS Mean (Day 61 − Baseline), MMRM: −0.12 pounds
  Lean Body Mass, Difference in LS Mean at Day 61 (Compound 1 v. Placebo): 0.09 pounds
  Lean Body Mass, LS Mean (Day 61 − Baseline), MMRM: −0.80 pounds
  Percent Body Fat, Difference in LS Mean at Day 61 (Compound 1 v. Placebo): −0.37%
  Percent Body Fat, LS Mean (Day 61 − Baseline), MMRM: −0.08%
  Skeletal Muscle Mass, Difference in LS Mean at Day 61 (Compound 1 v. Placebo): 0.16
  Skeletal Muscle Mass, LS Mean (Day 61 − Baseline), MMRM: −0.34
[3]; 150 mg, Elevated A1C
  Skeletal Muscle Mass, Change from Baseline to Day 61, Mean: 0.63 lbs
  Skeletal Muscle Mass, Change from Baseline to Day 61, Median: 0.85 lbs
[3]; 150 mg, FAS population
  Body Fat Mass, Change from Baseline to Day 61, Mean: −0.3 lbs
  Body Fat Mass, Change from Baseline to Day 61, Median: −0.4 lbs
  Body Fat Mass, Day 61, Mean: 95.4 lbs
  Body Fat Mass, Day 61, Median: 97.8 lbs
[3]; [4]
  Body Fat Mass, Difference in LS Mean at Day 61 (Compound 1 v. Placebo): −3.32 pounds
  Body Fat Mass, LS Mean (Day 61 − Baseline), MMRM: 1.78 pounds
  Dry Lean Mass, Difference in LS Mean at Day 61 (Compound 1 v. Placebo): 0.67 pounds
  Dry Lean Mass, LS Mean (Day 61 − Baseline), MMRM: 0.27 pounds
  Lean Body Mass, Difference in LS Mean at Day 61 (Compound 1 v. Placebo): 1.70 pounds
  Lean Body Mass, LS Mean (Day 61 − Baseline), MMRM: 0.72 pounds
  Percent Body Fat, Difference in LS Mean at Day 61 (Compound 1 v. Placebo): −1.05%
  Percent Body Fat, LS Mean (Day 61 − Baseline), MMRM: −0.61) Percent
  Skeletal Muscle Mass, Difference in LS Mean at Day 61 (Compound 1 v. Placebo): 1.28
  Skeletal Muscle Mass, LS Mean (Day 61 − Baseline), MMRM: 0.57
[3]; [5]
  Body Fat Mass, Change from Baseline to Day 61, Mean: −1.5 lbs
  Body Fat Mass, Change from Baseline to Day 61, Median: −1.8 lbs
  Body Fat Mass, Day 61, Mean: 107.1 lbs
  Body Fat Mass, Day 61, Median: 102.7 lbs
[3]; 150 mg, all subjects
  Skeletal Muscle Mass, Change from Baseline to Day 61, Mean: −0.38 lbs
  Skeletal Muscle Mass, Change from Baseline to Day 61, Median: 0.30 lbs
[3]; [6]
  Body Fat Mass, Change from Baseline to Day 61, Mean: −3.6 lbs
  Body Fat Mass, Change from Baseline to Day 61, Median: −5.1 lbs
  Body Fat Mass, Day 61, Mean: 96.2 lbs
  Body Fat Mass, Day 61, Median: 97 lbs
[3]; 300 mg, All Subjects
  Body Fat Mass, Difference in LS Mean at Day 61 (Compound 1 v. Placebo): −3.84 pounds
  Body Fat Mass, LS Mean (Day 61 − Baseline), MMRM: −3.23 pounds
  Dry Lean Mass, Difference in LS Mean at Day 61 (Compound 1 v. Placebo): 0.12 pounds
  Dry Lean Mass, LS Mean (Day 61 − Baseline), MMRM: −0.15 pounds
  Lean Body Mass, Difference in LS Mean at Day 61 (Compound 1 v. Placebo): 0.03 pounds
  Lean Body Mass, LS Mean (Day 61 − Baseline), MMRM: −0.86 pounds
  Percent Body Fat, Difference in LS Mean at Day 61 (Compound 1 v. Placebo): −1.03%
  Percent Body Fat, LS Mean (Day 61 − Baseline), MMRM: −0.74%
  Skeletal Muscle Mass, Difference in LS Mean at Day 61 (Compound 1 v. Placebo): −0.03
  Skeletal Muscle Mass, LS Mean (Day 61 − Baseline), MMRM: −0.54
[3]; 300 mg, Elevated A1C
  Skeletal Muscle Mass, Change from Baseline to Day 61, Mean: 0.03 lbs
  Skeletal Muscle Mass, Change from Baseline to Day 61, Median: 0.00 lbs
[3]; 300 mg, FAS population
  Body Fat Mass, Change from Baseline to Day 61, Mean: −3.3 lbs
  Body Fat Mass, Change from Baseline to Day 61, Median: −2.6 lbs
  Body Fat Mass, Day 61, Mean: 91.9 lbs
  Body Fat Mass, Day 61, Median: 96.6 lbs
[3]; [7]
  Body Fat Mass, Difference in LS Mean at Day 61 (Compound 1 v. Placebo): −4.90 pounds
  Body Fat Mass, LS Mean (Day 61 − Baseline), MMRM: −3.36 pounds
